The text below walks through data of ChEMBL document CHEMBL2177033, “N-substituted phenoxazine and acridone derivatives: structure-activity relationships of potent P2X4 receptor antagonists” (J Med Chem, 2012).

Assay [1] relates to 1321-N1. Put plainly: Selectivity ratio of IC50 for rat P2X4 receptor to IC50 for human P2X4 receptor expressed in 1321N1 cells.
The target in assay [2] is P2X purinoceptor 4 (Homo sapiens, UniProt Q99571). The assay can be described thus: Competitive antagonist activity at human P2X4 receptor expressed in 1321N1 cell membrane assessed as inhibition of [35S]ATPgammaS binding by scintillation counting.

Take `Nc1ncnc2c1ncn2[C@@H]1O[C@H](COP(=O)(O)OP(=O)(O)OP(=O)(O)O)[C@H]2OC3(O[C@H]21)C([N+](=O)[O-])=CC(=[N+]([O-])[O-])C=C3[N+](=O)[O-]` (some centres not stated) [TNP-ATP]: the Ratio IC50 in assay [1] came out at 3. In addition, the inhibition entry in assay [2] is “Dose-dependent effect”.
